Reference: BindingDB's records for patent US10538508 (Oncoarendi Therapeutics, 2020)

Sequences of proteins named here, by UniProt entry; tags and fusion partners are left off. A change or cut given only in a name is not applied to a line headed by its entry.
UniProt Q13231: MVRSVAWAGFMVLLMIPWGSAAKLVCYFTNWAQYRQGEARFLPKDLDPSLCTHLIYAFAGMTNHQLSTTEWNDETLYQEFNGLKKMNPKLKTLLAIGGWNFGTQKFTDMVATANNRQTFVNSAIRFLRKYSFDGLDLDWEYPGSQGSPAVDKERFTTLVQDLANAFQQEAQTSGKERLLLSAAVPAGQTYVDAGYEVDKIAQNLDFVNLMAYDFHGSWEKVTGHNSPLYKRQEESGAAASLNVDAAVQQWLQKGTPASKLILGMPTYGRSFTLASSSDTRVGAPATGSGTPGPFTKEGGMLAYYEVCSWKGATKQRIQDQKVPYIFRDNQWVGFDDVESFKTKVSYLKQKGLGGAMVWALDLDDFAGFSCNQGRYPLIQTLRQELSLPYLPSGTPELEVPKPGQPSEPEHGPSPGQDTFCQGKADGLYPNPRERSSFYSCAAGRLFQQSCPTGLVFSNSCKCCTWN

Biological target: Chitotriosidase-1 (Homo sapiens, UniProt Q13231)
Assay: ASSAY_NAME: HumanCHIT1 Activity Assay DESCRIPTION: An enzymatic assay with recombinant human CHIT1 was used in order to establish inhibitory activity of the compounds (Boot et al., 2001, JBC: 276). The assay was run in the 96-well plate format, each reaction in the total volume of 100 μL. 4-methylumbelliferyl β-D-N,N′,N″-triacetylchitotriose was used as a substrate for the en

`Nc1nnc(N2CCC(N3CCC[C@@H]3c3cccc(Cl)c3)CC2)[nH]1` [US10538508, Example 24] showed an IC50 of under 100 nM.
